Data taken from US8859534B2, “2-carboxamide-7-piperazinyl-benzofuran derivatives” (AstraZeneca AB, priority 2009, dated 2014).

Amino acid sequences for entries named in this document (tags omitted).
UniProt P08908, whole entry: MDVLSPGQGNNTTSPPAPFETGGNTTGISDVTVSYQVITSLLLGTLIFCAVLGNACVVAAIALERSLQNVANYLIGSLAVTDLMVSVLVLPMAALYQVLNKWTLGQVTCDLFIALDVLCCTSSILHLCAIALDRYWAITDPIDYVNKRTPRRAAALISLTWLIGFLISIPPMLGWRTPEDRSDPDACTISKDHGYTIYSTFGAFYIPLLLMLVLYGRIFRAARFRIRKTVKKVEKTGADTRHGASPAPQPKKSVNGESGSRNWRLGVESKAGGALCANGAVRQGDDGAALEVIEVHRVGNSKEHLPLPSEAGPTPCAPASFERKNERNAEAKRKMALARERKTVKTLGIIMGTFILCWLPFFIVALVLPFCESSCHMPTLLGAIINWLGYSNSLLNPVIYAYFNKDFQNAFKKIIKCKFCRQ

Target: 5-HT1A receptor (Homo sapiens (Human), UniProt P08908)
Assay: 5-HT1A receptor competition binding assay (SPA, [3H]-8-OH-DPAT)
Details: membranes of CHO cells expressing 5-HT1A receptors; radioligand [3H]-8-OH-DPAT 0.15-0.2 nM
Source text: Assays that were used to measure affinity of the compounds of the present invention for 5-HT1A and 5-HT1B receptors are described in J. Recept Signal Transduct. Res. 22:483-495 (2002) and Naunyn-Schmiedeberg's Arch Pharmacol. 356:328-334 (1997) and incorporated by reference herein. These assays were be used with some modifications:
For the binding assay stably transfected chinese hamster ovary (CHO) cell lines expressing 5-HT1A receptors or 5-HT1B receptors were harvested by centrifugation at 300×g for 10 min and resuspended in 10 mM Tris-HCl, 5 mM EDTA at pH 7.4. The cells were pooled, recentrifuged and resuspended before homogenisation using a Dounce homogeniser (“type B”). Cell membranes were centrifuged at 48 000×g for 10 min and then resuspended in harvesting buffer using an Ultra-Turrax T8 (IKA Labortechnik, Germany), aliquots were stored frozen in −70° C.
Frozen membrane preparations were thawed, homogenized with an Ultra-Turrax and mixed with SPA beads (YSI coated WGA, GE Healthcare/Amersham, Buckinghamshire, UK) in assay buffer containing 50 mM Tris-Base, 4 mM MgCl2, 4 mM CaCl2 (only 5-HT1B), 1 mM EDTA, and adjusted to pH 7.4 with HCl. […] The binding assays were performed in 384-well plates in a final volume of 90 μL/well with the following additions: 9 μL binding buffer; 1 μL compound/DMSO/nonspecific; 20 μL radioligand; and 60 μL beads/membrane mixture. Non-specific binding was defined by using 10 μM WAY100635 for 5-HT1A and 10 μM Methiothepin for 5-HT1B. The assay plates were incubated for 4 hours where after the plates are counted in a Wallac 1450 Microbeta Trilux counter (PerkinElmer LifeScience, US) or similar. Data from the experiments were analyzed using a four parameter logistic equation as follows: Y=Bottom+(Top-Bottom)/1+10^(LogEC50-X)nH.

Ki	SMILES
6.4 nM	CC(=O)N1CCC(NC(=O)c2cc3cccc(N4CCN(CCc5ccccn5)CC4)c3o2)CC1 [Example 6, N-(1-Acetylpiperidin-4-yl)-7-(4-(2-(pyridin-2-yl)ethyl)piperazin-1-yl)benzofuran-2-carboxamide]
0.55 nM	O=C(NC1CC1)c1cc2cccc(N3CCN(CCc4ccccn4)CC3)c2o1 [Example 13, N-Cyclopropyl-7-(4-(2-(pyridin-2-yl)ethyl)piperazin-1-yl)benzofuran-2-carboxamide]
0.32 nM	COc1ccnc(CCN2CCN(c3cccc4cc(C(=O)N(C)C)oc34)CC2)c1 [Example 39, 7-(4-(2-(4-Methoxypyridin-2-yl)ethyl)piperazin-1-yl)-N,N-dimethylbenzofuran-2-carboxamide]
0.38 nM	O=C(NCc1ccc2c(c1)OCO2)c1cc2cccc(N3CCN(CCc4ccccn4)CC3)c2o1 [Example 10, N-(Benzo[d][1,3]dioxol-5-ylmethyl)-7-(4-(2-(pyridin-2-yl)ethyl)piperazin-1-yl)benzofuran-2-carboxamide]

The next lines start with the compound.

SMILES	Ki
CC(=O)N1CCc2cc(CCN3CCN(c4cccc5cc(C(=O)N6CCC6)oc45)CC3)ccc21 [Example 49, 1-(5-(2-(4-(2-(Azetidine-1-carbonyl)benzofuran-7-yl)piperazin-1-yl)ethyl)indolin-1-yl)ethanone]	0.16 nM
CN(C)C(=O)c1cc2cccc(N3CCN(CCc4cc(C#N)ccn4)CC3)c2o1 [Example 41, 7-(4-(2-(4-Cyanopyridin-2-yl)ethyl)piperazin-1-yl)-N,N-dimethylbenzofuran-2-carboxamide]	1.3 nM
COc1cccc(CCN2CCN(c3cccc4cc(C(=O)N5CCC5)oc34)CC2)n1 [Example 45, Azetidin-1-yl(7-(4-(2-(6-methoxypyridin-2-yl)ethyl)piperazin-1-yl)benzofuran-2-yl)methanone]	0.34 nM
Cn1cnc(CCNC(=O)c2cc3cccc(N4CCN(CCc5ccccn5)CC4)c3o2)c1 [Example 30, N-(2-(1-Methyl-1H-imidazol-4-yl)ethyl)-7-(4-(2-(pyridin-2-yl)ethyl)piperazin-1-yl)benzofuran-2-carboxamide]	1.1 nM
